According to PMC3412545:

Target: Myc-tagged Coro1B-S2D (human) (UniProt Q9BR76)
Test: co-IP

percent less co-immunoprecipitation than with S2A: 48%
Substance: actin-related protein 2/3 complex subunit 2 (from UniProt P85970 1-300) (natural protein)
